Molecular target: 5-hydroxytryptamine receptor 7 (Homo sapiens, UniProt P34969)
Test: biochemical

Sequences of proteins named here, by UniProt entry; tags and fusion partners are left off.
UniProt P34969, whole entry: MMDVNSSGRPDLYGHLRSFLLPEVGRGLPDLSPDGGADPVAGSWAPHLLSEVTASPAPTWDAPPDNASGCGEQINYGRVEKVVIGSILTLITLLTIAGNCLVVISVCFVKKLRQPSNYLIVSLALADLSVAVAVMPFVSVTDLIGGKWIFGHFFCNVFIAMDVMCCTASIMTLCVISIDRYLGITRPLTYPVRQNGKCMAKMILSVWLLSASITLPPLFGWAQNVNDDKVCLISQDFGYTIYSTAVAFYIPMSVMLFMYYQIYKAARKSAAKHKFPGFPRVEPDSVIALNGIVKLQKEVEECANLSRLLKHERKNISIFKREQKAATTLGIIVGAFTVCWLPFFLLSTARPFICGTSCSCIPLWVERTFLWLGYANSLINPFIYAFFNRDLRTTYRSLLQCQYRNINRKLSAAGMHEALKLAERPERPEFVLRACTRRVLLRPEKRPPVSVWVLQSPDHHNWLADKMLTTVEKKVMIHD

- Ki: 25.1 nM
Structure (SMILES): CCN1CCCC1CNC(=O)c1cc(S(=O)(=O)CC)c(N)cc1OC (stereo unspecified) [AMISULPRIDE]
